Measured values as given in paper PMC9181987, “Disclosing the Potential of Fluorinated Ionic Liquids as Interferon-Alpha 2b Delivery Systems” (Nanomaterials, 2022).

Experiments:
[1] = target: T1, IFN-α 2b (Homo sapiens, UniProt P01563); parameters: method as in ref 62 = [62]; 62. Nikolaiev R. Stepanenko Y. Chernykh S. Melnichuk N. Tkachuk Z. Conformational, Fluorescence and Energy Parameters of Interferon A2b with Different Forms of Oligoribonucleotides and Adenosine Monop; conditions: cited from earlier work
T1 construct: purchased Sigma-Aldrich SRP4595; host or cells: E. coli

[2] = STEM/TEM images: aggregate size; type: physicochemical; conditions: IFN-α 2b at 0.0001 μg/mL; 150 mM NaH2PO4 pH 7.4
[3] = Dynamic light scattering: aggregate size and polydispersity index; type: physicochemical; conditions: 50 μg/mL IFN-α 2b; 150 mM NaH2PO4; 25°C
Experimental: These concentrations were chosen to comprise two different aggregates of each FIL, above the 1st CAC and the 3rd CAC. […] Therefore, 20 μL was transferred into a quartz cell of 10 mm pathlength and measured at 25 °C.
Moreover, the polydispersity index (PdI) was obtained by DLS which determines the heterogeneity of the sample in the function of the size.

For “IFN-α 2b: Interferon-alpha 2b, human recombinant, SRP4595, expressed in E. coli; therapeutic protein”, the “unquenched lifetime τ0” value [1] is listed as “approximately 2.95 × 10^−9 s”, the “aggregate size, TEM image” value [2] is listed as at most 2 μm and the “Polydispersity index (PdI)” value [3] is listed as 0.427.
